US20240208896A1, “PRODRUGS OF KV7 CHANNEL OPENERS” (Xyzagen, Inc., priority 2021, published 2024)

Test system: mouse maximal electroshock (MES) assay
Test: Mouse MES assay with plasma and brain concentration, Compound 29 oral
Assay type: in vivo, CF-1 mouse
Settings: male CF-1 mice; oral 30 mg/kg; 0.25, 0.5 and 1 h
Source text: Each male CF-1 mouse provided one data point in the MES assay and one data point in the concentration analysis. There were 8 mice per time point.

SMILES: CCNC(=O)CC[C@H](N)C(=O)Nc1cc(NCc2ccc(F)cc2)ccc1NC(=O)OCC.Cl [Compound 29]
- Pharmacological response in MES assay: Pharmacological response reduced in tandem to the decrease in brain concentrations
